In data set [1] the test system is PFV intasome (integrase tetramer with viral DNA) (prototype foamy virus). In words: AlphaLISA competition. Particulars: AlphaLISA: 50 mM BisTris-propane pH 7, 100 mM NaCl, 0.1% Tween-20, 0.1% BSA, 1 mM DTT, RT, 2 h; EMSA: 8% native PAGE after salt dialysis from 2 M NaCl …. A general note: In Alpha technology, singlet oxygen from a donor bead excites a nearby acceptor bead.

Data set [2] deals with human mononucleosome (MN) reconstituted on the biotinylated 601 Widom sequence (human) (UniProt P04908). Kind of data set: AlphaScreen or HTRF; AlphaLISA; biotinylated MN (0-50 nM) cross-titrated against DIG-intasome (0-100 nM), also 1 nM of each; 50 mM BisTris-propane pH 7, 100 mM NaCl, 0.1% Tween-20, 0.1% BSA, 1 mM DTT; RT; anti-DIG acceptor and streptavidin donor beads.
Data set [3] shares this target. In words: AlphaScreen or HTRF; AlphaLISA competition; increasing concentrations of untagged intasome titrated into the 1 nM DIG-intasome/biotinylated nucleosome interaction assay; apparent IC50.

For two substances, IC50, AlphaLISA signal and AlphaLISA signal (1 nM of each partner) results are on record in publication PMC10470491, “Modulation of the functional interfaces between retroviral intasomes and the human nucleosome” (mBio, 2023).

pIC50: −log10 of the molar value. Bounds are passed on as bounds.

What is called pIC50 is the negative decadic logarithm of the IC50, by convention in mol/L.

Take mononucleosome on 601 Widom: in data set [1], the pIC50 was 7.57.

Take “prototype foamy virus (PFV) intasome (complex)”: in data set [2], the AlphaLISA signal is more than 1e+06 counts and the AlphaLISA signal (1 nM of each partner) was more than 1e+06 counts. The negative-log IC50 (pIC50) in data set [3] is 7.57.
